# According to article PMC12430830, “Discovery of a Novel Cyclopeptide as Tyrosinase Inhibitor for Skin Lightening” (Skin Research and Technology, 2025):
# System: human melanocyte cells
compound,measurement,value
NC[C@H]1CC[C@H](C(=O)O)CC1 [tranexamic acid],cell viability,above 90%
